Assay results reported in ChEMBL document CHEMBL1159093, “Discovery and optimization of RO-85, a novel drug-like, potent, and selective P2X3 receptor antagonist” (Bioorg Med Chem Lett, 2010).

Key:
[1] = system: GABA-A receptor (Rattus norvegicus); test: Displacement of [3H]flunitrazepam from BZD receptor in rat cerebral cortex at 10 uM after 60 mins by scintillation counting
[2] = molecular target: Translocator protein (Rattus norvegicus) (UniProt P16257); test: Displacement of [3H]PK 11195 from BZD receptor in rat heart at 10 uM after 15 mins by scintillation counting

CC(=O)N1CCN(C[C@@H](C)NC(=O)c2cc3c(-c4ccccc4)nn(C)c3s2)CC1
Activity [1]: > 50%
Activity [2]: > 50%
